From ChEMBL document CHEMBL5247640 (J Med Chem, 2023)

Experiments:
[1] = Fold of selectivity, ratio of compound EC50/T3 EC50 for THRalpha to ratio of compound EC50/T3 EC50 for THRbeta
[2] = AUClast in ICR mouse liver at 10 mg/kg, po measured after 24 hrs by LC-MS/MS analysis; assay type: ADME, organism-based; conditions: in vivo

AUClast [2]: 1124265 ng·h/g
SMILES: CC(C)n1c(=O)ccc2c1ccn2-c1c(Cl)cc(-n2nc(C#N)c(=O)[nH]c2=O)cc1Cl
Ratio [1]: 11.2
